Test results from publication PMC3052287 (Psychopharmacology, 2010).

By UniProt entry, the sequences of proteins in these tests, tags left out.
UniProt P34969, whole entry: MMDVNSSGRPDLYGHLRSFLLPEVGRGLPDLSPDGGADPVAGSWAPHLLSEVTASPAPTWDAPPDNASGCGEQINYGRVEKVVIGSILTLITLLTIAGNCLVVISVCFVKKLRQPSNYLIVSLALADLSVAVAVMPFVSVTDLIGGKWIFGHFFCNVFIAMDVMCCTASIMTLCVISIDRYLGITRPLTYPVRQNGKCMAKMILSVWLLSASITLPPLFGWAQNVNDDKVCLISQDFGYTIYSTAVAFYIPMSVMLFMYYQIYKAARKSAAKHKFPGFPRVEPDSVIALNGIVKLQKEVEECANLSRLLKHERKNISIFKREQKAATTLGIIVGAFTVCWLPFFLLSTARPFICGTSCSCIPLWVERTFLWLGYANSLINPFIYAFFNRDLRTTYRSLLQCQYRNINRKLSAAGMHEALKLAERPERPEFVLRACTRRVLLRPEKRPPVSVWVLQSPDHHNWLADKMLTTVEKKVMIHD

Biological target: h5-HT7 receptor (Homo sapiens, UniProt P34969)

[^3H]risperidone
Bmax (estimated from homologous competition curve data): 3,300 fmol/mg protein | absolute level of binding (intact cells, 1 nM radioligand): 1,200 fmol/mg | wash-resistant (pseudo-irreversibly bound) share of specific binding (intact cells, 1 nM radioligand, thorough washing): ~ 50% | release of wash-resistant bound radioligand by TCA (preliminary studies, TCA precipitates the receptor): could be released by treatment with TCA
